Experimental data: US20220024982A1 (Bicycle, published 2022)

Target: T1, MT1-MMP Hemopexin domain (PEX) (UniProt P50281 319-511)
T1 construct: domain: Hemopexin domain (PEX); Target of the fluorescence polarisation assays; also called hemopexin of MT1-MMP; MMP14
Test: FP competition vs tracer 17-69-07-N040
Excerpt: Here, a pre-formed complex of PEX with the fluorescent PEX-binding tracer is titrated with free, non-fluoresceinated bicyclic peptide. Since all 17-69-based peptides are expected to bind at the same site, the titrant will displace the fluorescent tracer from PEX. Dissociation of the complex can be measured quantitatively, and the Kd of the competitor (titrant) to the target protein determined. The advantage of the competition method is that the affinities of non-fluoresceinated bicyclic peptides can be determined accurately and rapidly.
Subsequently, the non-fluorescent competitor bicyclic peptide (usually just the bicycle core sequence) is titrated, such that it displaces the fluorescent tracer from the target protein. The displacement of the tracer is measured and associated with a drop in fluorescence polarisation. The drop in fluorescence polarisation is proportional to the fraction of target protein bound with the non-fluorescent titrant, and thus is a measure of the affinity of titrant to target protein.
The raw data is fit to the analytical solution of the cubic equation that describes the equilibria between fluorescent tracer, titrant, and binding protein. The fit requires the value of the affinity of fluorescent tracer to the target protein, which can be determined separately by direct binding FP experiments (see previous section).

| Binder | Kd |
| --- | --- |
| ACDEDFYPCGHYLNQCA (3 Cys linked to TATA scaffold) [17-126-26] | 1200 nM |
| ACEEQFYPCTHPLYVCA (3 Cys linked to TATA scaffold) [17-126-27] | 143 nM |
| ACPEQFYPCTHRLYQCA (3 Cys linked to TATA scaffold) [17-126-28] | 250 nM |
| HSPCEEQFYPCSHPLYRCA (3 Cys linked to TATA scaffold) [17-126-30-T01] | 239 nM |
| GPHCAEQFYPCDHPLYRCA (3 Cys linked to TATA scaffold) [17-126-31-T01] | 295 nM |
| IHSCAEEFYPCDHPLYRCA (3 Cys linked to TATA scaffold) [17-126-32-T01] | 390 nM |
| WSPCEEAFYPCNHPLYTCA (3 Cys linked to TATA scaffold) [17-126-33-T01] | 244 nM |
| SHSCEEAFYPCNHPLYTCA (3 Cys linked to TATA scaffold) [17-126-33-T02] | 296 nM |
| DLHCAEAFYPCDHPLYVCA (3 Cys linked to TATA scaffold) [17-126-35-T01] | 263 nM |
| ANECEEAFYPCSHPLFICA (3 Cys linked to TATA scaffold) [17-126-36-T01] | 149 nM |
| AVWCEEAFYPCSHPLHPCA (3 Cys linked to TATA scaffold) [17-126-37-T01] | 155 nM |
| KVQCEEAFYPCSHPLFVCA (3 Cys linked to TATA scaffold) [17-126-38-T01] | 162 nM |
| ACEEQFYPCSHPLYSCPDVA (3 Cys linked to TATA scaffold) [17-126-39-T01] | 187 nM |
| ACEEAFYPCEHPLYMCHQAA (3 Cys linked to TATA scaffold) [17-126-40-T01] | 310 nM |
| ACEEQFYPCNHPLYMCRENA (3 Cys linked to TATA scaffold) [17-126-41-T01] | 202 nM |
| ACPEECFYLPPHPMSCA (3 Cys linked to TATA scaffold) [17-127-01] | 2200 nM |
| ACPQECFYLPGHSLYCA (3 Cys linked to TATA scaffold) [17-129-00] | 446 nM |
| SQTCPGECFYPPGHPLACA (3 Cys linked to TATA scaffold) [17-129-01-T01] | 499 nM |
| SMTCPGECFYPPGHPLACA (3 Cys linked to TATA scaffold) [17-129-01-T02] | 525 nM |
| SLVCPGECFYPPGHPLACA (3 Cys linked to TATA scaffold) [17-129-01-T03] | 598 nM |
| ISSYGCPGECFYPPGHPLACA (3 Cys linked to TATA scaffold) [17-129-01-T04] | 705 nM |
| ENITTCPGECFYPPGHPLACA (3 Cys linked to TATA scaffold) [17-129-01-T05] | 324 nM |
| ACPGECFYPTNHPLYCA (3 Cys linked to TATA scaffold) [17-129-02] | 877 nM |
| ACPQECFYPIGHPLACA (3 Cys linked to TATA scaffold) [17-129-03] | 536 nM |
| ACPEECFYPPGHKLHCA (3 Cys linked to TATA scaffold) [17-129-04] | 595 nM |
| ACPQECFYPPGHRLRCA (3 Cys linked to TATA scaffold) [17-129-05] | 136 nM |

| Binder | Kd |
| --- | --- |
| ACPQECFYPPGHPYHCA (3 Cys linked to TATA scaffold) [17-129-06] | 566 nM |
| ACPQECFYPSTHPLYCA (3 Cys linked to TATA scaffold) [17-129-07] | 582 nM |
| ACPGECFYPSNHRLYCA (3 Cys linked to TATA scaffold) [17-129-08] | 516 nM |
| ACPDECFYPPEHPLACA (3 Cys linked to TATA scaffold) [17-129-09] | 1090 nM |
| ACPGECFYPPGHHLSCA (3 Cys linked to TATA scaffold) [17-129-10] | 781 nM |
| ACPGECFYPPGHHLGCA (3 Cys linked to TATA scaffold) [17-129-11] | 912 nM |
| LCPEECFYPPNHPLYCHA (3 Cys linked to TATA scaffold) [17-129-12-T01] | 187 nM |
| TCPGECFYPPDHPLYCNA (3 Cys linked to TATA scaffold) [17-129-13-T01] | 248 nM |
| QCPGECFYPPGHPLYCNA (3 Cys linked to TATA scaffold) [17-129-14-T01] | 246 nM |
| ACPGECFYPPGHPLYCNVI (3 Cys linked to TATA scaffold) [17-129-14-T02] | 318 nM |
| NCPGECFYPPNHPFYCNA (3 Cys linked to TATA scaffold) [17-129-15-T01] | 278 nM |
| DCPGECFYPPNHPLYCRA (3 Cys linked to TATA scaffold) [17-129-16-T01] | 263 nM |
| SRMCPEECFYPPGHPLACA (3 Cys linked to TATA scaffold) [17-129-17-T01] | 418 nM |
| SRSCPEECFYPPGHPLACA (3 Cys linked to TATA scaffold) [17-129-17-T02] | 369 nM |
| RYMTRCPEECFYPPGHPLACA (3 Cys linked to TATA scaffold) [17-129-17-T03] | 312 nM |
| REECWMECFYPPGHPLACA (3 Cys linked to TATA scaffold) [17-129-18-T01] | 138 nM |
| DNMCWMECFYPPGHPLACA (3 Cys linked to TATA scaffold) [17-129-18-T02] | 334 nM |
| QESCWMECFYPPGHPLACA (3 Cys linked to TATA scaffold) [17-129-18-T03] | 202 nM |
| ADYCWMECFYPPGHPLACA (3 Cys linked to TATA scaffold) [17-129-18-T04] | 172 nM |
| MANCFEECFYPPGHPLACA (3 Cys linked to TATA scaffold) [17-129-19-T01] | 754 nM |
| SQNCFEECFYPPGHPLACA (3 Cys linked to TATA scaffold) [17-129-19-T02] | 458 nM |
| ACPGECFYPPGHPLRCTVL (3 Cys linked to TATA scaffold) [17-129-20-T01] | 213 nM |
| ACPGECFYPPGHPRECSWL (3 Cys linked to TATA scaffold) [17-129-21-T01] | 111 nM |
| ACPGECFYPPGHRFHCLTE (3 Cys linked to TATA scaffold) [17-129-22-T01] | 53.7 nM |
| ACPGECFYPPGHRLYCYSE (3 Cys linked to TATA scaffold) [17-129-23-T01] | 54.8 nM |
| ACHPEWVSCEFHCA (3 Cys linked to TATA scaffold) [17-116-01] | 352 nM |
